These results are taken from US4767764A, “Alkoxyalkyl and alkylmercaptoalkyl substituted bridged benzofuroisoquinolines having opioid antagonist and/or appetite-controlling properties” (E. I. Du Pont de Nemours and Company, priority 1986, dated 1988).

Chains of the proteins cited; added tags and fusions are not shown. Lines headed by an entry give the natural chain unless they say otherwise; changes in a name come on top.
UniProt P33534: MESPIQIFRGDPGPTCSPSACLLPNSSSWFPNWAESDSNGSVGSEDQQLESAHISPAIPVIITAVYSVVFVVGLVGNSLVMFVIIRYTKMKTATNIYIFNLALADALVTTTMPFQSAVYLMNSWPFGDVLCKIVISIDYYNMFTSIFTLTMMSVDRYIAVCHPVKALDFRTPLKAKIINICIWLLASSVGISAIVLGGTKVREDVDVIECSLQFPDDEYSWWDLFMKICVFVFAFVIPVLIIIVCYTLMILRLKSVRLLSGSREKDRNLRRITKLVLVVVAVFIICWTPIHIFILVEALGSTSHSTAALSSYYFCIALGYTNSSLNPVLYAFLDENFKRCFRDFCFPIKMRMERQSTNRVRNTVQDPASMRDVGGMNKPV
UniProt P42866, whole entry, looked up: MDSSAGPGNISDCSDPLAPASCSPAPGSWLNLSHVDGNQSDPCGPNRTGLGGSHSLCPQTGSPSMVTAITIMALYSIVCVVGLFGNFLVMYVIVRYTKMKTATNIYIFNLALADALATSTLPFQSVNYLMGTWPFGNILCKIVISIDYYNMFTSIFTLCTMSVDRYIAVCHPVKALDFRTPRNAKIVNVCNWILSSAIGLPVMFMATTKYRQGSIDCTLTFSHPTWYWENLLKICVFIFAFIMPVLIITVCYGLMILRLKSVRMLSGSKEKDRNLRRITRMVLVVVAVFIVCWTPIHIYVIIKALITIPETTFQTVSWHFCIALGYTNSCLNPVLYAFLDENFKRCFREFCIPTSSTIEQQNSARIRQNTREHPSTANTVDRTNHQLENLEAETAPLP

Assay [1] relates to PQ-induced writhing in mice. The assay is described as follows: phenylquinone writhing test (PQW), analgesic activity. The class given is in vivo, mouse (male CF1). The following applies: s.c.; analgesic (opioid agonist) activity. A general note: Writhing tests count abdominal constrictions after an irritant is injected.
The target of assay [2] is kappa opioid receptor (U-50,488H analgesia) (Mus musculus, UniProt P33534). As to the kind of experiment: antagonism of U-50,488H analgesia in PQW test (kappa antagonist potency). The class given is in vivo, mouse (male CF1). The following applies: ratio of ED50 morphine / ED50 U-50,488H antagonism.
A further assay concerns the target mu receptor (Mus musculus, UniProt P42866). The following applies: in vivo, sc.
The subject of a further assay is kappa receptor. The following applies: cited from earlier work.
The next assay has as its system feeding. Particulars: versus morphine; cited from earlier work.

As a reminder, the ED50 is the midpoint of the dose-response relation. High values mean a need for a large dose, low ones an effect at a small dose.

Regarding `CO[C@]12CC[C@@]3(C[C@@H]1C(C)(C)O)[C@H]1Cc4ccc(O)c5c4[C@@]3(CCN1CC1CC1)[C@H]2O5`, the “ED50, antagonism of PQ-induced writhing in mice” value in assay [1] was above 81 mg/kg. Further, the “kappa selectivity (morphine/U-50,488H antagonism)” value (from here on “kappa selectivity”) in assay [2] is 0.19 X. The ED50 on mu receptor is 0.006 mg/kg.

Turning to `Oc1cccc2c1OC1C3CCC4(CN(CC5CC5)CCC214)C(COCCCc1ccccc1)C3` (centres unmarked) [Example 7, 3-cyclopropylmethyl-5-(3-phenyl-n-propoxymethyl)-1,2,3,4,5,6,7,7a-octahydro-4a,7-ethanolbenzofuro[3,2-e]isoquinolin-9-ol], the “kappa selectivity” value in assay [2] is on record as 1.2 X. On mu receptor, this compound returned an ED50 of 0.13 mg/kg.

As to `COCC1CC2CCC13CN(CC1CC1)CCC31c3cccc(O)c3OC21` (centres unmarked) [Example 6, 3-Cyclopropylmethyl-5-methoxymethyl-1,2,3,4,5,6,7,7a-octahydro-4a,7-ethanobenzofuro[3,2-e]isoquinolin-9-ol], the “kappa selectivity” value in assay [2] was found to be 1.1 X. Moreover, the ED50 on mu receptor is 0.01 mg/kg.

Consider `CCC1C2Cc3ccc(O)cc3C1(CC)CCN2Cc1ccoc1` (centres unmarked) [MR 2266, reference compound], for which, in assay [2], the “kappa selectivity” value worked out at 0.95 X. This compound also gave an ED50 at mu receptor of 0.21 mg/kg. In addition, the “kappa receptor activity/selectivity in words” value with kappa receptor is given as “relatively selective kappa antagonist”.

For the compound `CN(C(=O)Cc1ccc(Cl)c(Cl)c1)[C@@H]1CCCC[C@H]1N1CCCC1` (relative stereo), in the assay with feeding, the stimulation of feeding result is recorded as “more potent stimulators of feeding than the mu agonist morphine”.
